# Literature values as cited in patent publication US7919620B2, “Agent for suppressing blood pressure elevation” (Coral Biotech Kabushiki Kaisha, priority 2005, dated 2011).
# How the values were obtained:
# [1] = 8 healthy volunteers, cited from earlier work
# [2] = room temperature, atmospheric pressure; cited from earlier work
# [3] = human subjects, cited from earlier work
# [4] = rat, delivered into the heart, cited from earlier work
substance,measurement,setting,value
orthosilicic acid,Ingested orthosilicic acid absorbed,[1]; aqueous solution 27-55 ppm,50.3%
same,"Ingested orthosilicic acid absorbed, range (n=8)",[1]; aqueous solution 27-55 ppm,21.9-74.7%
same,Renal clearance of Si,[1],82 to 96 mL/min
same,Concentration at which the compound spontaneously polymerizes,[2],≥ 2000 µM
same,Absorbed and detected in the blood,[3]; 32Si(OH)4,36%
same,"Remaining share of the absorbed compound excreted, second phase",[3],10%
same,"Share of the absorbed compound excreted into urine, first phase",[3],90%
same,"T1/2 of excretion, second phase (remaining 10%)",[3],11.3 h
same,"T1/2 of urinary excretion, first phase (90% of absorbed)",[3],2.7 h
same,Time after which absorbed Si was completely removed,[3],48 h
same,Delivered amount excreted in urine,[4]; within 4 hours,77±12%
same,Distribution to the brain,[4],little found in the brain
same,Protein binding / form present,[4],present mostly in its free form with no proteins bound to it
